Source: PubChem (Broad Institute)
PDI inh: inhibitors of human protein disulfide isomerase; PDI insulin aggregation turbidity, A650, 90 min; P07237; AID 588391; inhibition, % at 10 µM; actives 0.052% (n = 350,000);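 active means mean inhibition across replicates of 30% or more, whatever share of single replicates reach that level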
FGF22 binding: FGF22 (human) thermal shift binding; Q9HCT0; activity (Tm shift, normalised), % at 9.99 µM; AID 651658; actives 1.5% (n = 340,000); recombinant FGF22 thermal shift, SYPRO orange fluorescence; percent of sucrose octasulfate shift, DMSO zero;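 active means mean Tm shift, scaled 0 neutral to 100 positive control, at about 1.3% or above, every replicate too, limit read from the data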
S100A4 inh HTS: S100A4-myosin IIA interaction inhibition; inhibition, % at 10.7 µM; actives 0.14% (n = 360,000); S100A4/TAMRA-MyoIIA peptide fluorescence polarization; AID 652163;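 active means mean inhibition of at least 70% across replicates, with every replicate also reaching that level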
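Test system – S100A4 monomer (human) · Compound – single-point compound testing · Schedule – 5 min incubation before reading · Probe or stimulus – TAMRA-labelled myosin IIA heavy-chain peptide probe, 5 nM · Benchmarks – neutral control DMSO, positive control TFP · Medium – Calcium-containing HEPES buffer, pH 7.2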
Yeast UUG start: modulators of yeast start codon fidelity, primary screen, whole organism, S. cerevisiae, single point, plate reader | AID 602363, 2012 | actives 0.13% (n = 350,000) | activity score, % at 18.7 µM | S. cerevisiae UUG-firefly luciferase reporter, luminescence/redox ratio;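 active means replicate mean at a twofold rise or more, about +100% in these data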;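 further: firefly luciferase made from a UUG start codon reports start codon fidelity; reporter light over untreated wells divided by growth signal over untreated wells; some hits fall short of that in this replicate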
ERp5 block: inhibitors of human ERp5. Q15084. ERp5 insulin aggregation, absorbance 650 nm, 90 min. inhibition, % at 9.99 µM. actives 0.05% (n = 350,000). AID 651711;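 active means mean replicate inhibition above about 25%, with every replicate also reaching it, limit read from the data, passing the limit was not always enough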
SIRT5 block: blocks human SIRT5 desuccinylation of peptide. Q9NXA8. Purified SirT5, succinyl-peptide AMC, trypsin-coupled fluorescence. inhibition, % at 15 µM. actives 1.1% (n = 330,000). AID 652115; in the data active means inhibition above about 15%
Hits are given with their value; n = inactive; x = not tested or not shown. Rows were chosen to be rich in hits. Some 2.2% of all compounds tested hit in one or more screens of this group.

SMILES	PDI inh	FGF22 binding	S100A4 inh HTS	Yeast UUG start	ERp5 block	SIRT5 block
c1ccc(-c2ccnc3ncnn23)nc1	n	x	x	x	x	x
CCOC(=O)[C@@H]1[C@H]2COc3ccccc3[C@@H]2N2C(=O)N(c3ccc(F)cc3)C(=O)[C@@]12C	n	45	n	n	n	n
CCOC(=O)[C@@H]1[C@H]2COc3ccccc3[C@@H]2N2C(=O)N(c3ccc(C)cc3)C(=O)[C@@]12C	n	n	n	n	n	x
COc1ccc(S(=O)(=O)N(C)CC(=O)Nc2ccc(C)cc2)cc1OC	n	43	n	x	n	n
CC(=O)c1cccc(NC(=O)CN(C)S(=O)(=O)c2ccccc2)c1	n	43	n	n	n	n
CN(C)S(=O)(=O)c1cccc(NC(=O)CCCSc2ccccc2)c1	n	n	n	n	n	n
CC(=O)c1cccc(NC(=O)CCCSc2ccccc2)c1	n	n	n	n	n	16
COc1ccc(S(=O)(=O)N(C)CC(=O)Nc2cccc(C(C)=O)c2)cc1C	n	x	x	n	x	x
C[C@H]1CN([C@@H](C)CO)C(=O)c2cc(-c3cccnc3)cnc2O[C@@H]1CN(C)Cc1ccc(-c2ccccc2)cc1	x	n	n	n	n	n
CC(=O)N1CCN(c2ccc([N+](=O)[O-])cc2C#N)CC1	n	n	n	n	n	n
CCCN1CCN(c2ccc([N+](=O)[O-])cc2C#N)CC1	n	43	n	x	n	n
COc1cccc(NC(=O)N2CC[C@@H]3[C@@H](CO)N(C)c4ccc(-c5ccccc5)cc4[C@@H]32)c1	x	n	n	n	n	n
CN(C)CCCNC(=O)c1cc2sc3ccccc3c2s1	n	44	n	x	n	n
O=C(N[C@H]1CC[C@H](CC(=O)N2CCCCC2)O[C@@H]1CO)c1ccc2c(c1)OCO2	x	n	n	n	n	n
CCCCN(CCCC)Cc1ccc(C(=O)NN)o1	n	44	n	n	n	n
COc1cccc(-c2ccc3c(c2)[C@H]2[C@H](CCN2C(=O)Cc2ccccc2)[C@@H](CO)N3)c1	x	n	n	n	n	n
O=C(CCSc1ccccc1)NCCSCc1ccccc1	n	n	n	x	n	n
Cc1cccc(CSCCNC(=O)CCSc2ccccc2)c1	n	44	n	n	n	n
COCc1ccc(CN2CCc3c([nH]c4ccccc34)C2CC(C)C)o1 (stereo not drawn)	n	43	n	n	n	n
CCc1nccn1CCC(=O)N1CCc2c([nH]c3ccccc23)C1CC(C)C (stereo not drawn)	n	n	n	n	n	n
O=C(C1CC1)N1CC2(C1)[C@@H](c1ccccc1)[C@@H](CO)N2CC1CCCC1	x	x	n	x	n	n
COC(=O)[C@@H](NS(=O)(=O)c1cc(Br)ccc1Br)C(C)C	n	n	n	n	n	n
CCC(C)[C@H](NS(=O)(=O)c1ccc(F)cc1Br)C(=O)OC (stereo partly drawn)	n	43	n	n	n	x
O=C(c1ccco1)N1N=C(c2cccs2)CC1c1ccco1 (stereo not drawn)	n	n	n	x	n	n
Cc1ccc(C2CC(c3cccs3)=NN2C(=O)c2ccco2)o1 (stereo not drawn)	n	44	n	n	n	n
SMILES	PDI inh	FGF22 binding	S100A4 inh HTS	Yeast UUG start	ERp5 block	SIRT5 block
COc1ccc(S(=O)(=O)N2CCOC23CCN(S(=O)(=O)c2ccccc2)CC3)cc1	n	n	n	n	n	27
Cc1ccc(/C=C/C(=O)N2CC(=O)Nc3ccccc32)o1	n	44	n	x	n	n
Cc1cc(C)cc(C(=O)N2CC(=O)Nc3ccccc32)c1	n	x	x	x	x	x
Nc1c(Cl)cnc(C(Cl)(Cl)Cl)c1Cl	n	43	n	x	n	n
O=C1OCCOC2CCCc3oc(C4=CCCCC4)c1c32 (stereo not drawn)	x	n	n	x	n	33
COc1ccc(CCN(Cc2cc3ccc(C)cc3n3nnnc23)C(C)=O)cc1OC	n	n	n	x	n	26
CCOCCCNC(=O)c1ccc(C2SCC(=O)N2Cc2ccccc2)cc1 (stereo not drawn)	n	n	n	n	n	n
CCCNC(=O)c1ccc(C2SCC(=O)N2Cc2ccccc2)cc1 (stereo not drawn)	n	44	n	x	n	n
CN1CCc2c1nc1ccccc1c2N=C1CCCN1Cc1ccccc1	n	43	n	x	n	n
Cc1cc(C)c(N=C2CCCN2Cc2ccccc2)c(C#N)c1	n	x	x	n	x	x
C=CCc1cc(/C=C2/NC(=S)NC2=O)cc(OC)c1O	n	x	x	x	x	x
C=CCc1cc(/C=C2/NC(=O)NC2=O)cc(OCC)c1O	n	43	n	x	n	n
Cc1sc2nc(CN3CCCC3)nc(N3CCN(C(=O)c4ccco4)CC3)c2c1C	n	44	n	x	n	n
Cc1sc2nc(CN3CCCC3)nc(N3CCC(C(N)=O)CC3)c2c1C	n	x	x	x	x	x
CCOC(=O)Cn1c(C)cc(COC)c(C#N)c1=O	n	43	n	x	n	x
COCc1cc(C)n(CC(=O)N2CCCC2)c(=O)c1C#N	n	x	x	x	x	x
Cn1c(=O)c2c(nc(NCCNC(=O)c3ccco3)n2Cc2ccccc2)n(C)c1=O	n	n	n	n	n	n
Cn1c(=O)c2c(nc(NCCNC(=O)c3ccco3)n2Cc2ccc(F)cc2)n(C)c1=O	n	1.8	n	n	n	n
CCOC(=O)C1=C(C)N(C)C(=O)NC1c1cc2c(cc1[N+](=O)[O-])OCO2 (stereo not drawn)	n	44	n	n	n	n
CCCCOC(=O)C1=C(C)N(C)C(=O)NC1c1cc2c(cc1Br)OCO2 (stereo not drawn)	n	n	n	n	n	n
Cc1ccc(S(=O)(=O)Nc2ccccc2F)cc1C(=O)OC(C)C(=O)N1CCOCC1 (stereo not drawn)	n	n	75	x	n	n
COC(=O)CC1OCC=C2CN3CCC45C6=CC(=O)C(=O)C([N+](=O)[O-])=C6NC4C1C2CC35 (stereo not drawn)	85	n	n	n	n	n
Cc1nc2c(-c3ccc(Cl)cc3)c(C)[nH]n2c(=O)c1Cc1ccccc1	n	n	n	x	n	17
CC(C)(SC(=S)N1CCCCCC1)C(=O)O	n	n	n	x	n	n
CC(SC(=S)N1CCCC1)C(=O)O (stereo not drawn)	n	n	n	x	n	20
N/C(=N\OC(=O)c1cccs1)c1cccc([N+](=O)[O-])c1	n	n	n	n	n	35
Cc1cccc(C(=O)O/N=C(\N)c2cccc([N+](=O)[O-])c2)c1	n	n	n	n	n	n
Cc1ccc(NC(=O)C2CCCN(S(=O)(=O)c3c(C)noc3/C=C/N(C)C)C2)c(C)c1 (stereo not drawn)	n	n	n	n	n	n
COC(CNC(=O)C1CCCN(S(=O)(=O)c2c(C)noc2/C=C/c2cccs2)C1)OC (stereo not drawn)	n	1.4	n	x	n	n
